For two compounds, Emax and Activity results are on record in ChEMBL document CHEMBL5512680, “Design, Synthesis, and Biological Evaluation of New 2,6,7-Substituted Purine Derivatives as Toll-like Receptor 7 Agonists for Intranasal Vaccine Adjuvants” (J Med Chem, 2024).

Usually Emax stands for the greatest response seen or fitted, relative to the assay's reference.

The structures appear in SMILES notation. Calls of active or inactive are those of the source. The calls are words filed in the database; no cut-off is given here.

Experiment [1] addresses T1, Toll-like receptor 7 (Mus musculus) (UniProt P58681).
T1 sequence (whole entry): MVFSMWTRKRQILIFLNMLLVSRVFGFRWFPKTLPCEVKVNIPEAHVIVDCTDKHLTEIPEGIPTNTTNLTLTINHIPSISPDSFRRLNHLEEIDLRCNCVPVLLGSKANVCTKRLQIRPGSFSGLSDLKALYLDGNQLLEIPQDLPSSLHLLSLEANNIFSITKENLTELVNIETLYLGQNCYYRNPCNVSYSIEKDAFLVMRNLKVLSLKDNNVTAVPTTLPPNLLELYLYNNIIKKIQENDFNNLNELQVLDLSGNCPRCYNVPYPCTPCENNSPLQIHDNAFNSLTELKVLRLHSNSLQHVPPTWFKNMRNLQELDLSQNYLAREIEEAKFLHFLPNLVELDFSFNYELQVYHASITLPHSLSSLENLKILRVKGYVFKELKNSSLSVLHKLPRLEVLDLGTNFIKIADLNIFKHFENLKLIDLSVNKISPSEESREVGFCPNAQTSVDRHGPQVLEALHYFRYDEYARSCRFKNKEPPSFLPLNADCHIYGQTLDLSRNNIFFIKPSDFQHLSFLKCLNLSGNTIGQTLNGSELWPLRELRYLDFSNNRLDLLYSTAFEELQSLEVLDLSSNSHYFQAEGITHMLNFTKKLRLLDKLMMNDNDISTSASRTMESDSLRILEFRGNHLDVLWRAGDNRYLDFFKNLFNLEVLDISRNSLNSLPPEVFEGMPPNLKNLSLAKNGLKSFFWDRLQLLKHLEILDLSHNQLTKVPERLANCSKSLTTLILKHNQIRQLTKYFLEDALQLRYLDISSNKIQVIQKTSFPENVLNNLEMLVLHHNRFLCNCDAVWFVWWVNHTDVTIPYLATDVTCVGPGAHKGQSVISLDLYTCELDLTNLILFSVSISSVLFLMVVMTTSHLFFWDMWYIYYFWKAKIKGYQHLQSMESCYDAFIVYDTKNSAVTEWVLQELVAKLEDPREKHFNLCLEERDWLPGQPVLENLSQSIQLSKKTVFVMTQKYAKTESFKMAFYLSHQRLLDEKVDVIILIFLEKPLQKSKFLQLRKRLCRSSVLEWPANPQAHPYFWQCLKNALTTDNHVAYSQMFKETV
Nature of the experiment: Agonist activity at mouse TLR7 expressed in HEK293 cells co-expressing NF-kappaB/AP-1 inducible SEAP reporter gene at 3.7 uM measured for 24 hrs by colorimetric analysis relative to control. The format is cell-based. (In general: A reporter such as luciferase makes a cellular process visible.)

The target of experiment [2] is T2, Toll-like receptor 8 (Mus musculus) (UniProt P58682).
T2 sequence (whole entry): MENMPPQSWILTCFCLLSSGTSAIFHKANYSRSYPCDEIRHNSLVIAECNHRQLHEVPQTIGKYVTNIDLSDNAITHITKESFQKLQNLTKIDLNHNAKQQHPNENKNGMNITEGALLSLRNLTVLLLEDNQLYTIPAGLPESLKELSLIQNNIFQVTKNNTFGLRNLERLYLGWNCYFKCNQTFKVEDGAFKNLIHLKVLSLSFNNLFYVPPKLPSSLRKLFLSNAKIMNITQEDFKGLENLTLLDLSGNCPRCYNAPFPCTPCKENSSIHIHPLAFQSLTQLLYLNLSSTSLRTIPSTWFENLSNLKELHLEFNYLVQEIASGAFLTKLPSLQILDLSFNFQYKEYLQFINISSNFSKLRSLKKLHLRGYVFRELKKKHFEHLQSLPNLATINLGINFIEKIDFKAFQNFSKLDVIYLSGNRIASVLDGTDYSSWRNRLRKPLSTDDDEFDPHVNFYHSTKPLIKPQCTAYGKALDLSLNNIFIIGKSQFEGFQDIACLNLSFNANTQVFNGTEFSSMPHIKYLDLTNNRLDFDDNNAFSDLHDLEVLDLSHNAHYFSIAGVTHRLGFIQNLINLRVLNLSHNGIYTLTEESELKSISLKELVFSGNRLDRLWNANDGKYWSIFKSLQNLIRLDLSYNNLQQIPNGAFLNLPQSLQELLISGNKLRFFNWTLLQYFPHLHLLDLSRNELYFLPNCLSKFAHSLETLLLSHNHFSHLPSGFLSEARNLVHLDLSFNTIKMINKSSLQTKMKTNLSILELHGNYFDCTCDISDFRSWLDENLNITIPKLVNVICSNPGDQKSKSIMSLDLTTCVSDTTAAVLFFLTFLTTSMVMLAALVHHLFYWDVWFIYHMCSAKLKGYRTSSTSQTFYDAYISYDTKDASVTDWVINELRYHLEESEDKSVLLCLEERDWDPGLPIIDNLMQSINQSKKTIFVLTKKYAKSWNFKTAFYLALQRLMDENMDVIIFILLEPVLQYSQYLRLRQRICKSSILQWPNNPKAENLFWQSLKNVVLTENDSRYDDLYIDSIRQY
Nature of the experiment: Agonist activity at mouse TLR8 expressed in HEK293 cells co-expressing NF-kappaB/AP-1 inducible SEAP reporter gene at 1 to 100 uM measured for 24 hrs by colorimetric analysis. Particulars: dose 1-100 µM. The format is cell-based.

For `CCOCc1nc2c(N)nc3ccccc3c2n1CC(C)(C)C`, the Emax in experiment [1] is 0.633%.

Take `CCCCNc1nc(N)nc2ncn(Cc3ccc(CN(CC)CC)cc3OC)c12`: in experiment [2], the result was inactive.
